This assay has as its target HSV-1F gB ectodomain (recombinant glycoprotein B of Herpes simplex virus 1 strain F, aa 30-729) (Herpes simplex virus 1 (strain F)) (UniProt P06436). Description: cryo-EM structure.

On to “HSV-1F gB ectodomain (recombinant glycoprotein B of Herpes simplex virus 1 strain F, aa 30-729) (from UniProt P06436 30-729) (domain or fragment)”, for which the stoichiometry N turned out to be 3.

For the origin of these results see publication PMC11134845.
